Laboratory results published in publication PMC3559007 (Neuron, 2013).
Where a chain is given by its changes, count along the chain named.

What was measured:
[1] = target: T1, Hv1 F150A (Homo sapiens, UniProt Q96D96, F150A); test: Inside-out patch clamp, inhibition of Hv1 F150A mutant; format: cell-based
T1 sequence (Q96D96 1-273 F150A): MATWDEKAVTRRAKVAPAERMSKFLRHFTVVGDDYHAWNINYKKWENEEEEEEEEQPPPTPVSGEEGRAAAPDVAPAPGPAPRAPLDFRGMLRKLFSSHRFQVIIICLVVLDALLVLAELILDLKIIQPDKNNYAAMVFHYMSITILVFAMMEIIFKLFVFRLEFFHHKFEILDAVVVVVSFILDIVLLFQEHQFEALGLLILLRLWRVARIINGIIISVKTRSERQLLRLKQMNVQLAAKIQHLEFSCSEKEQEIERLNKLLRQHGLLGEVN

[2] = target: T2, Hv1 F150C (Homo sapiens, UniProt Q96D96, F150C); test: Inside-out patch clamp, inhibition of Hv1 F150C mutant; format: cell-based
T2 sequence (Q96D96 1-273 F150C): T1 sequence (Q96D96 1-273 F150A) with A150C

[3] = target: Hv1 F150W (Homo sapiens, UniProt Q96D96, F150W)
[4] = target: WT-WT linked Hv1 dimers (Homo sapiens, UniProt Q96D96); details: 40 µM 2GBI, +120 mV

N=C(N)Nc1nc2ccccc2[nH]1 [Compound 7, 2-guanidinobenzimidazole]
Difference in binding affinity between F150A and wild type channels [1]: large difference | Change in affinity for blocker, F150C vs wild type [2]: increased the affinity for the blocker, but to a lesser extent | Dose dependence of block, F150W vs wild type [3]: very similar to the wild type channel | Inhibition of the current [4]: 50%
